According to patent US20240342137A1 (priority 2023, published 2024):

Experiments:
alpha-2 adrenoceptors [1] = molecular target: T1, alpha-2 adrenoceptors; details: cited from earlier work
T1 construct: rows headed: Alpha-2 Ki; other: [3H]clonidine displacement, brain membrane; other: alpha-2; lower sensitivity compared to atipamezole; other: alpha-2, vs atipamezole

alpha-2 adrenoceptors [2] = details: cited from earlier work

SMILES | solubility (physchem) [µg/mL] | Ki (alpha-2 adrenoceptors [1]) [nM] | IC50 (alpha-2 adrenoceptors [1]; read-out: half-maximal inhibitory concentration) [nM] | Alpha-2toAlpha-2 ratio (specificity) (alpha-2 adrenoceptors [2])
CCC1(c2c[nH]cn2)Cc2ccccc2C1.Cl [atipamezole HCl, 4-(2-ethyl-2,3-dihydro-1H-inden-2-yl)-1 H-imidazole hydrochloride] | ~5000 |  |  | 
COC(=O)[C@@H]1[C@H]2C[C@H]3c4[nH]c5ccccc5c4CCN3C[C@@H]2CC[C@@H]1O [Yohimbine] |  | 130 | 130 | 40
